Measurements: PubChem BioAssay AID1486 (The Scripps Research Institute Molecular Screening Center, 2009)
The list shows a part of the results, in another mix than the full data. Activity calls are given as the source filed them.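 The calls were made as follows: active = inhibition above a per-campaign cutoff, the mean inhibition of all tested compounds plus 3 SD (cut at about 27% in these data); inactive = the rest.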

Experiment: growth loss in parental Ba/F3 cells – cell-based, murine pro-B, CellTiter-Glo luminescence, counter-screen for JAK2V617F inhibitor project (AID 1486);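 also: 0% = DMSO wells and 100% = JAK Inhibitor I control wells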
Conditions: Ba/F3 parental viability, CellTiter-Glo ATP luminescence; at 5.6 µM; hits give high values

Row | Compound | inhibition
1 | COc1ccccc1OP(C)(=O)Nc1ccccc1 (configuration not stated) | inactive: 5.88%
2 | CP(=O)(Nc1ccccc1Br)Oc1ccccc1 (configuration not stated) | inactive: 7.7%
3 | CP(=S)(Nn1cnnc1)Oc1ccccc1 (configuration not stated) | inactive: 3.28%
4 | Cc1cc(C)cc(OP(C)(=O)Nc2ccc(SC(F)(F)F)cc2)c1 (configuration not stated) | inactive: 3.52%
5 | CCc1ccc(OP(C)(=O)N2CCN(c3ccc([N+](=O)[O-])cc3)CC2)cc1 (configuration not stated) | inactive: 2.59%
6 | CP(=O)(NC(=O)Nc1ccccc1)Oc1ccccc1 (configuration not stated) | inactive: 5.22%
7 | CP(=O)(Oc1ccccc1)OC(c1ccccc1)C(F)(F)F (configuration not stated) | inactive: 6.95%
8 | CP(=O)(Nc1ccc(SC(F)(F)F)cc1)Oc1ccc(Cl)cc1 (configuration not stated) | inactive: -2.11%
9 | Cc1cccc(C)c1OP(C)(=O)Nc1ccc(SC(F)(F)F)cc1 (configuration not stated) | inactive: 0.18%
10 | CP(=O)(Nc1ccccn1)Oc1ccc(Cl)cc1 (configuration not stated) | inactive: 0.46%
11 | CCOP(C)(=S)SCC(=O)NC(C)C(=O)O (configuration not stated) | inactive: 1.1%
12 | CCOC(=O)c1ccc(NP(C)(=O)Oc2ccc(OC)cc2)cc1 (configuration not stated) | inactive: 8.66%
13 | CCN(CC)CCCOC(=O)C(O)(c1ccccc1)c1ccccc1 | inactive: 4.97%
14 | Cc1cccc(C)c1OP(C)(N)=O (configuration not stated) | inactive: 3.4%
15 | CC(C)(C)c1ccc(OP(C)(=O)Nc2ccc(SC(F)(F)F)cc2)cc1 (configuration not stated) | inactive: 6.23%
16 | O=[N+]([O-])c1ccc2c(c1)C=Nc1ccccc1O2 | inactive: 5.75%
17 | COc1ccc(OP(C)(=O)Nc2cccc(F)c2)cc1 (configuration not stated) | inactive: 4.19%
18 | COc1ccccc1OP(C)(=O)Nc1cc(Cl)ccc1C (configuration not stated) | inactive: 5.74%
19 | Cc1cc(C)cc(OP(C)(N)=O)c1 (configuration not stated) | inactive: 8.61%
20 | CCOC(=O)c1ccc(NP(C)(=O)Oc2ccccc2)cc1 (configuration not stated) | inactive: 2.45%
21 | Cc1ccc(NP(C)(=O)Oc2ccccc2)c(C)c1 (configuration not stated) | inactive: 2.39%

Row | Compound | inhibition
22 | COc1ccccc1OP(C)(=O)Nc1ccc(C)cc1 (configuration not stated) | inactive: 5.22%
23 | O=C(O)c1cccc(Nc2c([N+](=O)[O-])cc([N+](=O)[O-])cc2[N+](=O)[O-])c1 | inactive: 0.04%
24 | CC1=NCCc2c1[nH]c1ccccc21.O=[N+]([O-])c1cc([N+](=O)[O-])c(O)c([N+](=O)[O-])c1 | inactive: 3.61%
25 | Cc1cc(C)cc(OP(C)(=O)Nc2ccc(C)cc2C)c1 (configuration not stated) | inactive: 8.44%
26 | CCOC(=O)c1ccc(NP(C)(=O)Oc2cc(C)cc(C)c2)cc1 (configuration not stated) | inactive: -0.01%
27 | COc1ccccc1OP(C)(=O)Nc1cccc(Br)c1 (configuration not stated) | inactive: -6.59%
28 | CP(=O)(Nc1cccc(Br)c1)Oc1ccccc1 (configuration not stated) | inactive: 6.83%
29 | Cc1cc(C)cc(OP(C)(=O)Nc2ccccn2)c1 (configuration not stated) | inactive: 5.31%
30 | Cc1ccc(C)c(NP(C)(=O)Oc2ccccc2)c1 (configuration not stated) | inactive: 3.98%
31 | O=[N+]([O-])c1cc([N+](=O)[O-])c(-n2nnc3ccccc32)c([N+](=O)[O-])c1 | inactive: 8.39%
32 | Cc1nc2ccc3ccccc3c2s1.O=[N+]([O-])c1cc([N+](=O)[O-])c(O)c([N+](=O)[O-])c1 | inactive: 2.38%
33 | CCOC(=O)C(CC)C1=NC(C)(C)Cc2ccccc21.O=[N+]([O-])c1cc([N+](=O)[O-])c(O)c([N+](=O)[O-])c1 (configuration not stated) | inactive: -0.71%
34 | O=[N+]([O-])c1cc([N+](=O)[O-])c(Nc2nnnn2CCO)c([N+](=O)[O-])c1 | inactive: -3.99%
35 | CP(=O)(Nc1ccc(SC(F)(F)F)cc1)Oc1ccccc1 (configuration not stated) | inactive: -1.37%
36 | CCCOc1ccc(NP(C)(=O)Oc2ccc(Cl)cc2)cc1 (configuration not stated) | inactive: 1.84%
37 | CN1CCCCC1COC(=O)C1(O)c2ccccc2CCc2ccccc21 (configuration not stated) | inactive: 5.67%
38 | COc1ccccc1OP(C)(=O)Nc1c(C)cccc1C (configuration not stated) | inactive: 9.1%
39 | COc1ccc(NP(C)(=O)Oc2ccccc2OC)cc1 (configuration not stated) | inactive: 3.31%
40 | CN(C)CCOC(=O)C(O)(c1ccccc1)C1CCCCC1 (configuration not stated) | inactive: -0.41%
41 | COc1ccc(OP(C)(=O)Nc2cccc(Br)c2)cc1 (configuration not stated) | inactive: 3.93%
42 | Cc1cc(-c2cccc3ccccc23)c(C)cn1.O=[N+]([O-])c1cc([N+](=O)[O-])c(O)c([N+](=O)[O-])c1 | inactive: -3.55%

Row | Compound | inhibition
43 | O=[N+]([O-])c1cc([N+](=O)[O-])c(NCC2CCS(=O)(=O)C2)c([N+](=O)[O-])c1 (configuration not stated) | inactive: 1.23%
44 | O=[N+]([O-])c1ccc(OP2(=O)COCCO2)cc1 (configuration not stated) | inactive: -0.81%
45 | CCOP(C)(=S)SCC(=O)NC(C)(CC)C(=O)O (configuration not stated) | inactive: 2.86%
46 | CP(=O)(Nc1ccc(SC(F)(F)F)cc1)Oc1ccc(F)cc1 (configuration not stated) | inactive: 1.42%
47 | Cc1ccccc1NP(C)(=O)Nc1ccccc1C | inactive: 2.84%
48 | CP(=O)(Nc1ccc2c(c1)OCCO2)Oc1ccccc1 (configuration not stated) | inactive: 2.93%
49 | CC(C)c1ccc(OP(C)(=O)Nc2ccc(SC(F)(F)F)cc2)cc1 (configuration not stated) | inactive: 4.24%
50 | CP(=O)(Nc1ccccc1F)Oc1ccccc1 (configuration not stated) | inactive: 1.7%
51 | O=C(OCCN1CCN(CCOCc2ccccc2)CC1)C(O)(c1ccccc1)c1ccccc1 | inactive: 4.12%
52 | O=C(OC1CN2CCC1CC2)c1ccc([N+](=O)[O-])cc1 (configuration not stated) | inactive: -0.27%
53 | COc1ccc(OP(C)(=O)Nc2ccc(SC(F)(F)F)cc2)cc1 (configuration not stated) | inactive: 0.74%
54 | CCOC(=O)c1ccc(NP(C)(=O)Oc2ccc(F)cc2)cc1 (configuration not stated) | inactive: -0.29%
55 | CCCCCOc1ccc(NP(C)(=O)Oc2ccc(Cl)cc2Cl)cc1 (configuration not stated) | inactive: 0.83%
56 | CP(=O)(Nc1ccccc1)Oc1ccc(F)cc1 (configuration not stated) | inactive: -1.3%
57 | CCN(CC)CCCOC(=O)C(O)(c1ccccc1)C1CCCCC1 (configuration not stated) | inactive: 5.53%
58 | COc1ccc(OP(C)(=O)Nc2ccccc2Br)cc1 (configuration not stated) | inactive: 13.4%
59 | COc1ccccc1OP(C)(=O)Nc1ccc(C)c(C)c1 (configuration not stated) | inactive: 4.03%
60 | Cc1cc(C)cc(OP(C)(=O)Nc2cccc(C(F)(F)F)c2)c1 (configuration not stated) | inactive: 9.11%
61 | CP(=O)(OCCOc1ccccc1)OCCOc1ccccc1 | inactive: 7.69%
62 | CP(=O)(Nc1ccc(Cl)cc1Cl)Oc1ccccc1 (configuration not stated) | inactive: 6.45%
